Measured values from ChEMBL document CHEMBL1147236, “Semiplenamides A-G, fatty acid amides from a Papua New Guinea collection of the marine cyanobacterium Lyngbya semiplena” (J Nat Prod, 2003).

Amino acid sequences for entries named in this document (tags omitted).
UniProt P20272, whole entry: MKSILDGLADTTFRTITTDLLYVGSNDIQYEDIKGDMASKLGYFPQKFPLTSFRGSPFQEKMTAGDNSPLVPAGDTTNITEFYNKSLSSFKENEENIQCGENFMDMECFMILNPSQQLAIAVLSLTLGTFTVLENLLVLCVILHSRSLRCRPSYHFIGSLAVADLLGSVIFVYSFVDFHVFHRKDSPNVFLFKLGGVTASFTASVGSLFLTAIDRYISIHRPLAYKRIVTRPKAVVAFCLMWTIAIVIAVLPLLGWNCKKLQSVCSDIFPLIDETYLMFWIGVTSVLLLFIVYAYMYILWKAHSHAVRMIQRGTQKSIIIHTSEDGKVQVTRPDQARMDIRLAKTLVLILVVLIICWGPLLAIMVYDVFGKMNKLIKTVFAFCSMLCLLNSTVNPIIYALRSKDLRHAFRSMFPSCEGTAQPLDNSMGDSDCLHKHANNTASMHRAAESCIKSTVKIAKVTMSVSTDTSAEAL

Target: Cannabinoid receptor 1 (Rattus norvegicus, UniProt P20272)
Experiment: Displacement of [3H]SR141716A from CB1 receptor in CD rat brain membranes
Assay type: cell membranes, Membrane

`CCCCC/C=C\C/C=C\C/C=C\C/C=C\CCCC(=O)NCCO` [ANANDAMIDE] gave a Ki of 0.4 µM.
